{"source": "patent US20030078190A1", "about": "(priority 2001, published 2003)", "origin": "cited, not measured here", "target": "AT1 receptor (Homo sapiens, UniProt P30556)", "details": "cited from earlier work", "note": "Like-named read-outs stand apart in the source and are kept apart here.", "data": [{"smiles": "CCCCc1nc(Cl)c(CO)n1Cc1ccc(-c2ccccc2-c2nn[nH]n2)cc1", "note": "[losartan]", "values": [{"measurement": "Affinity for the AT1 receptor", "value": "lower affinity"}, {"measurement": "Affinity for the AT1 receptor", "setting": "listed as Losartan", "value": "weak binding properties"}]}]}
